By UniProt entry, the sequences of proteins in these tests, tags left out. Where a name states a change or a piece, a line headed by the entry shows the natural chain unless it says otherwise.
UniProt O00329: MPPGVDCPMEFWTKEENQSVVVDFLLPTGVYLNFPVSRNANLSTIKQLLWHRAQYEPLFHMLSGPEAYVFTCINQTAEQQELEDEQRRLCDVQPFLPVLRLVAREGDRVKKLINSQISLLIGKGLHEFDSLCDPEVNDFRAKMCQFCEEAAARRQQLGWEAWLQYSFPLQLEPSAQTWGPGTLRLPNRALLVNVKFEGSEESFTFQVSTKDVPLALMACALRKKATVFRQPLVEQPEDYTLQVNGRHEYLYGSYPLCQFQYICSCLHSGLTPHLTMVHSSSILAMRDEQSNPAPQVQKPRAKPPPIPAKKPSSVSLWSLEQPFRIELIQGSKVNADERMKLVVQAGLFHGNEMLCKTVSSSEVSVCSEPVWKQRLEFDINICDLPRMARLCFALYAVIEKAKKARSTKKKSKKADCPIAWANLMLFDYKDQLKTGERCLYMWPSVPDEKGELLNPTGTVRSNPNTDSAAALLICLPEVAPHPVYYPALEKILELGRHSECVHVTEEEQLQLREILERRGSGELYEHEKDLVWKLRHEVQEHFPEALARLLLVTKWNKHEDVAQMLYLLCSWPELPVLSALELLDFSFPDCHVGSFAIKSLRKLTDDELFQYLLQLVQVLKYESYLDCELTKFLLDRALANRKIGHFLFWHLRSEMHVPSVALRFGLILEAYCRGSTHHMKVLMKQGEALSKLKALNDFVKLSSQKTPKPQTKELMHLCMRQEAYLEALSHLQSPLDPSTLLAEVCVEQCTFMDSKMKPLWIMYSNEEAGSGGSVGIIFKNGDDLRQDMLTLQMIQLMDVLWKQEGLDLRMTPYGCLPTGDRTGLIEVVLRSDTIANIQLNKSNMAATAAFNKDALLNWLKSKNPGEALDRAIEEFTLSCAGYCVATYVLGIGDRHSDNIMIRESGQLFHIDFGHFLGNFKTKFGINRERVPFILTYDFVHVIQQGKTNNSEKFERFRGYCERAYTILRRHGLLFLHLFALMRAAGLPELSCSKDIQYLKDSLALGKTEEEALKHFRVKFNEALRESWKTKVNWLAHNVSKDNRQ

In US11618753B2 (priority 2018, dated 2023):

These molecules were tested against GST-tagged PIK3Cδ in complex with PIK3R1 (Homo sapiens (Human), UniProt O00329) (assay: biochemical).
`Nc1ncnn2c(-c3cc(C(=O)N[C@@H]4CN(C(=O)CC(O)(C(F)(F)F)C(F)(F)F)C[C@@H]4F)c(Cl)cc3F)cc(C(F)(F)F)c12` [Example 885, 5-[4-amino-5-(trifluoromethyl)pyrrolo[2,1-f][1,2,4]triazin-7-yl]-2-chloro-4-fluoro-N-[(3R,4S)-4-fluoro-1-[4,4,4-trifluoro-3-hydroxy-3-(trifluoromethyl)butanoyl]pyrrolidin-3-yl]benzamide] gave an IC50 of 529 nM. `Nc1ncnn2c(-c3cc(C(=O)N[C@@H]4CN(C(=O)C5CC(F)C5)C[C@@H]4F)c(Cl)cc3F)cc(C(F)(F)F)c12` (stereo partly drawn) [Example 888, 5-[4-amino-5-(trifluoromethyl)pyrrolo[2,1-f][1,2,4]triazin-7-yl]-2-chloro-4-fluoro-N-[(3R,4S)-4-fluoro-1-(3-fluorocyclobutanecarbonyl)pyrrolidin-3-yl]benzamide] gave an IC50 of 487 nM. Work on `Nc1ncnn2c(-c3ccc(C(F)(F)F)c(C(=O)N[C@@H]4CN(C(=O)c5ccccc5F)C[C@@H]4F)c3)cc(C(F)(F)F)c12` [Example 906, 5-[4-amino-5-(trifluoromethyl)pyrrolo[2,1-f][1,2,4]triazin-7-yl]-N-[(3R,4S)-4-fluoro-1-(2-fluorobenzoyl)pyrrolidin-3-yl]-2-(trifluoromethyl)benzamide] yielded an IC50 of 443 nM. Work on `C[C@@](O)(C(=O)N1C[C@H](F)[C@H](NC(=O)c2cc(-c3cc(C(F)(F)F)c4c(N)ncnn34)ccc2CF)C1)C(F)(F)F` [Example 910, 5-[4-amino-5-(trifluoromethyl)pyrrolo[2,1-f][1,2,4]triazin-7-yl]-N-[(3R,4S)-4-fluoro-1-[(2R)-3,3,3-trifluoro-2-hydroxy-2-methylpropanoyl]pyrrolidin-3-yl]-2-(fluoromethyl)benzamide] yielded an IC50 of 200 nM. `Nc1ncnn2c(-c3ccc(CF)c(C(=O)N[C@@H]4CN(C(=O)C5CC(F)(F)C5)C[C@@H]4F)c3)cc(C(F)(F)F)c12` [Example 911, 5-[4-amino-5-(trifluoromethyl)pyrrolo[2,1-f][1,2,4]triazin-7-yl]-N-[(3R,4S)-1-(3,3-difluorocyclobutanecarbonyl)-4-fluoropyrrolidin-3-yl]-2-(fluoromethyl)benzamide] gave an IC50 of 35 nM. In the case of `Nc1ncnn2c(-c3ccc(CF)c(C(=O)N[C@@H]4CN(C(=O)CC(O)(C(F)(F)F)C(F)(F)F)C[C@@H]4F)c3)cc(C(F)(F)F)c12` [Example 912, 5-[4-amino-5-(trifluoromethyl)pyrrolo[2,1-f][1,2,4]triazin-7-yl]-N-[(3R,4S)-4-fluoro-1-[4,4,4-trifluoro-3-hydroxy-3-(trifluoromethyl)butanoyl]pyrrolidin-3-yl]-2-(fluoromethyl)benzamide], the IC50 is reported as 553 nM. For `Nc1ncnn2c(-c3ccc(CF)c(C(=O)N[C@@H]4CN(C(=O)C5CCC(F)(F)CC5)C[C@@H]4F)c3)cc(C(F)(F)F)c12` [Example 918, 5-[4-amino-5-(trifluoromethyl)pyrrolo[2,1-f][1,2,4]triazin-7-yl]-N-[(3R,4S)-1-(4,4-difluorocyclohexanecarbonyl)-4-fluoropyrrolidin-3-yl]-2-(fluoromethyl)benzamide], the IC50 was 44 nM. `Nc1ncnn2c(-c3ccc(Cl)c(C(=O)N[C@@H]4CN(C(=O)CC(O)(C(F)(F)F)C(F)(F)F)C[C@@H]4F)c3)cc(C(F)(F)F)c12` [Example 931, 5-[4-amino-5-(trifluoromethyl)pyrrolo[2,1-f][1,2,4]triazin-7-yl]-2-chloro-N-[(3R,4S)-4-fluoro-1-[4,4,4-trifluoro-3-hydroxy-3-(trifluoromethyl)butanoyl]pyrrolidin-3-yl]benzamide] showed an IC50 of 558 nM. Work on `CCc1ccc(-c2cc(C(F)(F)F)c3c(N)ncnn23)cc1C(=O)N[C@@H]1CN(C(=O)C2CC(F)(F)C2)C[C@@H]1F` [Example 968, 5-[4-amino-5-(trifluoromethyl)pyrrolo[2,1-f][1,2,4]triazin-7-yl]-N-[(3R,4S)-1-(3,3-difluorocyclobutanecarbonyl)-4-fluoropyrrolidin-3-yl]-2-ethylbenzamide] yielded an IC50 of 195 nM. `Cc1ccc(-c2cc(C(F)(F)F)c3c(N)ncnn23)cc1C(=O)N[C@@H]1CN(C(=O)C2CC(F)(F)C2)C[C@@H]1F` [Example 986, 5-[4-amino-5-(trifluoromethyl)pyrrolo[2,1-f][1,2,4]triazin-7-yl]-N-[(3R,4S)-1-(3,3-difluorocyclobutanecarbonyl)-4-fluoropyrrolidin-3-yl]-2-methylbenzamide] was tested, and the IC50 was 1170 nM. `Cc1ccc(-c2cc(C(F)(F)F)c3c(N)ncnn23)cc1C(=O)N[C@@H]1CN(C(=O)CC(O)(C(F)(F)F)C(F)(F)F)C[C@@H]1F` [Example 994, 5-[4-amino-5-(trifluoromethyl)pyrrolo[2,1-f][1,2,4]triazin-7-yl]-N-[(3R,4S)-4-fluoro-1-[4,4,4-trifluoro-3-hydroxy-3-(trifluoromethyl)butanoyl]pyrrolidin-3-yl]-2-methylbenzamide] showed an IC50 of 553 nM. `Cc1ccc(-c2cc(C(F)(F)F)c3c(N)ncnn23)cc1C(=O)N[C@@H]1CN(C(=O)C(C)(C)F)C[C@@H]1F` [Example 1000, 5-[4-amino-5-(trifluoromethyl)pyrrolo[2,1-f][1,2,4]triazin-7-yl]-N-[(3R,4S)-4-fluoro-1-(2-fluoro-2-methylpropanoyl)pyrrolidin-3-yl]-2-methylbenzamide] was tested, and the IC50 was 306 nM. `Nc1ncnn2c(-c3ccc(OC(F)F)c(C(=O)N[C@@H]4CN(C(=O)CC(C(F)(F)F)C(F)(F)F)C[C@@H]4F)c3)cc(C(F)(F)F)c12` [Example 1081, 5-[4-amino-5-(trifluoromethyl)pyrrolo[2,1-f][1,2,4]triazin-7-yl]-2-(difluoromethoxy)-N-[(3R,4S)-4-fluoro-1-[4,4,4-trifluoro-3-(trifluoromethyl)butanoyl]pyrrolidin-3-yl]benzamide] was tested, and the IC50 was 141 nM. Molecule `Nc1ncnn2c(-c3ccc(OC(F)F)c(C(=O)N[C@@H]4CN(C(=O)CC(O)(C(F)(F)F)C(F)(F)F)C[C@@H]4F)c3)cc(C(F)(F)F)c12` [Example 1088, 5-[4-amino-5-(trifluoromethyl)pyrrolo[2,1-f][1,2,4]triazin-7-yl]-2-(difluoromethoxy)-N-[(3R,4S)-4-fluoro-1-[4,4,4-trifluoro-3-hydroxy-3-(trifluoromethyl)butanoyl]pyrrolidin-3-yl]benzamide] has an IC50 of 558 nM. Work on `COc1ccc(-c2cc(C(F)(F)F)c3c(N)ncnn23)cc1C(=O)N[C@@H]1CN(C(=O)CC(O)(C(F)(F)F)C(F)(F)F)C[C@@H]1F` [Example 1126, 5-[4-amino-5-(trifluoromethyl)pyrrolo[2,1-f][1,2,4]triazin-7-yl]-N-[(3R,4S)-4-fluoro-1-[4,4,4-trifluoro-3-hydroxy-3-(trifluoromethyl)butanoyl]pyrrolidin-3-yl]-2-methoxybenzamide] yielded an IC50 of 2240 nM. In the case of `COc1ccc(-c2cc(C(F)(F)F)c3c(N)ncnn23)cc1C(=O)N[C@@H]1CN(C(=O)C2CC(F)(F)C2)C[C@@H]1F` [Example 1128, 5-[4-amino-5-(trifluoromethyl)pyrrolo[2,1-f][1,2,4]triazin-7-yl]-N-[(3R,4S)-1-(3,3-difluorocyclobutanecarbonyl)-4-fluoropyrrolidin-3-yl]-2-methoxybenzamide], the IC50 is reported as 174 nM. `Nc1ncnn2c(-c3ccc(Cl)c(C(=O)N[C@@H]4CN(C(=O)CC(C(F)(F)F)C(F)(F)F)C[C@@H]4F)c3)cc(CN3CCC(F)(F)CC3)c12` [Example 1138, 5-{4-amino-5-[(4,4-difluoropiperidin-1-yl)methyl]pyrrolo[2,1-f][1,2,4]triazin-7-yl}-2-chloro-N-[(3R,4S)-4-fluoro-1-[4,4,4-trifluoro-3-(trifluoromethyl)butanoyl]pyrrolidin-3-yl]benzamide] was tested, and the IC50 was greater than 15000 nM. In the case of `Nc1ncnn2c(-c3ccc(Cl)c(C(=O)N[C@@H]4CN(C(=O)C5CC(F)(F)C5)C[C@@H]4F)c3)cc(CN3CCC(F)(F)CC3)c12` [Example 1140, 5-{4-amino-5-[(4,4-difluoropiperidin-1-yl)methyl]pyrrolo[2,1-f][1,2,4]triazin-7-yl}-2-chloro-N-[(3R,4S)-1-(3,3-difluorocyclobutanecarbonyl)-4-fluoropyrrolidin-3-yl]benzamide], the IC50 is reported as greater than 15000 nM. `C[C@@](O)(C(=O)N1C[C@H](F)[C@H](NC(=O)c2cc(-c3cc(CN4CCC(F)(F)CC4)c4c(N)ncnn34)ccc2Cl)C1)C(F)(F)F` [Example 1141, 5-{4-amino-5-[(4,4-difluoropiperidin-1-yl)methyl]pyrrolo[2,1-f][1,2,4]triazin-7-yl}-2-chloro-N-[(3R,4S)-4-fluoro-1-[(2R)-3,3,3-trifluoro-2-hydroxy-2-methylpropanoyl]pyrrolidin-3-yl]benzamide] showed an IC50 greater than 15000 nM. Molecule `Nc1ncnn2c(-c3ccc(Cl)c(C(=O)N[C@@H]4CN(C(=O)C5CC(F)C5)C[C@@H]4F)c3)cc(CN3CCC(F)(F)CC3)c12` (stereo partly drawn) [Example 1142, 5-{4-amino-5-[(4,4-difluoropiperidin-1-yl)methyl]pyrrolo[2,1-f][1,2,4]triazin-7-yl}-2-chloro-N-[(3R,4S)-4-fluoro-1-(3-fluorocyclobutanecarbonyl)pyrrolidin-3-yl]benzamide] has an IC50 greater than 15000 nM. In the case of `Nc1ncnn2c(-c3ccc(Cl)c(C(=O)N[C@@H]4CN(C(=O)C5(F)CC5)C[C@@H]4F)c3)cc(CN3CCC(F)(F)CC3)c12` [Example 1143, 5-{4-amino-5-[(4,4-difluoropiperidin-1-yl)methyl]pyrrolo[2,1-f][1,2,4]triazin-7-yl}-2-chloro-N-[(3R,4S)-4-fluoro-1-(1-fluorocycloproapnecarbonyl)pyrrolidin-3-yl]benzamide], the IC50 is reported as greater than 15000 nM. `CC(C)(F)C(=O)N1C[C@H](F)[C@H](NC(=O)c2cc(-c3cc(CN4CCC(F)(F)CC4)c4c(N)ncnn34)ccc2Cl)C1` [Example 1144, 5-{4-amino-5-[(4,4-difluoropiperidin-1-yl)methyl]pyrrolo[2,1-f][1,2,4]triazin-7-yl}-2-chloro-N-[(3R,4S)-4-fluoro-1-(2-fluoro-2-methylpropanoyl)pyrrolidin-3-yl]benzamide] showed an IC50 greater than 15000 nM. Molecule `Nc1ncnn2c(-c3ccc(Cl)c(C(=O)N[C@@H]4CN(C(=O)CC(F)(F)F)C[C@@H]4F)c3)cc(CN3CCC(F)(F)CC3)c12` [Example 1145, 5-{4-amino-5-[(4,4-difluoropiperidin-1-yl)methyl]pyrrolo[2,1-f][1,2,4]triazin-7-yl}-2-chloro-N-[(3R,4S)-4-fluoro-1-(3,3,3-trifluoropropanoyl)pyrrolidin-3-yl]benzamide] has an IC50 greater than 15000 nM.
